Molecular target: recombinant IGF1 receptor fused to one fragment of beta-galactosidase, over expressed on cells (DISCOVERX PathHunter IGF1R Bioassay Kit, Catalog No. 93-0505Y1) (UniProt P08069)
Assay: cell-based or functional assay

Amino acid sequences for entries named in this document (tags omitted). Residues count along the entry.
UniProt P08069, 31-1367: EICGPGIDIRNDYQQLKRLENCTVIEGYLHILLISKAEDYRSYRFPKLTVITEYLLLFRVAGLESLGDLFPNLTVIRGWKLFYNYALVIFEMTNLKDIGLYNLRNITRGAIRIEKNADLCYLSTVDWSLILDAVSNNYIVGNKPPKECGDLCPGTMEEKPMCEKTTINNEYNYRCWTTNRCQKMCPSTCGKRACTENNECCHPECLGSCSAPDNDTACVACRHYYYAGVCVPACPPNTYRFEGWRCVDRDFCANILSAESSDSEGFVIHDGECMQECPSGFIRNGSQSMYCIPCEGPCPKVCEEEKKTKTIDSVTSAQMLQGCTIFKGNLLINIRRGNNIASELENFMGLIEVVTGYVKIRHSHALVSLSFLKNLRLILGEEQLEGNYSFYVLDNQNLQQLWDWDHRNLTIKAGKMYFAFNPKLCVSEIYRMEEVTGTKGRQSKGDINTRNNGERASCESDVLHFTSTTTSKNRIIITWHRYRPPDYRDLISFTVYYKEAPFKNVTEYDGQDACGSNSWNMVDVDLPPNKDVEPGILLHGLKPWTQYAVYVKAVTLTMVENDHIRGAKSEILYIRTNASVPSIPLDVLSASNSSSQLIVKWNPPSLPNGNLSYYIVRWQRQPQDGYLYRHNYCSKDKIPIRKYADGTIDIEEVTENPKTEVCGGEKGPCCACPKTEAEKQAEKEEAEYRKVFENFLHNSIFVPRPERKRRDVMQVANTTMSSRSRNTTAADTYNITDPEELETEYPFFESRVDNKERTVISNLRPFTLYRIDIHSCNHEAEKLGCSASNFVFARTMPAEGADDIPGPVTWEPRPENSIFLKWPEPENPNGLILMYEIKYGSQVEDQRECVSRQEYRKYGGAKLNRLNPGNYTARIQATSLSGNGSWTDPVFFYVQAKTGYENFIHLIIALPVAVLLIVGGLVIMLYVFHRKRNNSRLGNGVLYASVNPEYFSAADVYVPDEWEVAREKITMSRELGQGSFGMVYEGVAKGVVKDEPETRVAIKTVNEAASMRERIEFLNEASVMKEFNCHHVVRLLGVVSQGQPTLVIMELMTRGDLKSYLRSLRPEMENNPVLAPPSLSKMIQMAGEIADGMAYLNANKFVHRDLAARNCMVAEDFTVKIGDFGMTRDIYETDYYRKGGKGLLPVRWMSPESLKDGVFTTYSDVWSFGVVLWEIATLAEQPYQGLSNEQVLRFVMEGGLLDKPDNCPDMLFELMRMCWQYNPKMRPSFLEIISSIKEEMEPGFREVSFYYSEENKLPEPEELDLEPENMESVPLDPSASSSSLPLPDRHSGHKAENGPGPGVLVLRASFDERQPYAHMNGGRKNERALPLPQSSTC

- Average EC50 (PathHunter IGF1R bioassay): 0.83 nM
- Average fold reduction, as compare to Increlex: 1.8 fold
- EC50, CBA#1 (PathHunter IGF1R bioassay): 0.67 nM
- EC50, CBA#2 (PathHunter IGF1R bioassay): 0.7 nM
- EC50, CBA#3 (PathHunter IGF1R bioassay): 0.96 nM
- EC50, CBA#5 (PathHunter IGF1R bioassay): 1.01 nM
Substance: Agonist (IGF1) of Table 8 (ligand)

Reference: patent US20210008172A1
